In ChEMBL document CHEMBL1155961, “Novel 4-aryl-pyrido[1,2-c]pyrimidines with dual SSRI and 5-HT1A activity: part 2” (Eur J Med Chem, 2009) one finds deltaT data, which are given here for 2 compounds.

For assay [1], the species on record is Mus musculus. Particulars: Swiss albino, 0.1 mg/kg.
The species entered for assay [2] is Mus musculus. The note with it: Swiss albino, 0.1 mg/kg. This is another data set of the same source.
The species entered for assay [3] is Mus musculus. The note with it: Swiss albino, 0.1 mg/kg. This is another data set of the same source.
The species named for assay [4] is Mus musculus. The note with it: Swiss albino, 0.1 mg/kg. This is another data set of the same source.
For assay [5], the species on record is Mus musculus. The note with it: Swiss albino, 0.1 mg/kg. This is another data set of the same source.
Assay [6] is filed under the species Mus musculus. Particulars: Swiss albino, 0.1 mg/kg. The source holds these as a separate data set.
Assay [7] is filed under the species Mus musculus. Particulars: Swiss albino, 5 mg/kg.
The species entered for assay [8] is Mus musculus. The note with it: Swiss albino, 5 mg/kg. The source holds these as a separate data set.
The species entered for assay [9] is Mus musculus. Particulars: Swiss albino, 5 mg/kg. The source holds these as a separate data set.
The species entered for assay [10] is Mus musculus. The note with it: Swiss albino, 0.1 mg/kg. The source holds these as a separate data set.
Assay [11] is filed under the species Mus musculus. Particulars: Swiss albino, 5 mg/kg. The source holds these as a separate data set.
The species named for assay [12] is Mus musculus. The note with it: Swiss albino, 0.1 mg/kg. The source holds these as a separate data set.
For assay [13], the species on record is Mus musculus. The note with it: Swiss albino, 5 mg/kg. The source holds these as a separate data set.

As for `COc1ccccc1N1CCN(CCN(C(=O)C2CCCCC2)c2ccccn2)CC1`, the deltaT was determined as 0.1 °C in [1], 0.2 °C in assay [2], 0.1 °C in assay [3] and 0.2 °C in assay [4].
For the compound `CCCN(CCC)C1CCc2cccc(O)c2C1` (stereo not drawn) [8-OH-DPAT], the deltaT in assay [5] is -0.1 °C; in assay [6], -0.1 °C; in assay [7] it was -1.2 °C; in assay [8], -1.5 °C; in [9] it was -0.8 °C; in assay [10] it was -0.2 °C. In addition, the values for the deltaT in [11], in [12] and in assay [13] were -0.7 °C, -0.1 °C and -0.2 °C, respectively.
